From article PMC2358886, “Evolution of pharmacologic specificity in the pregnane X receptor” (BMC Evolutionary Biology, 2008)

Tests used:
zebrafish PXR [1] = target: T1, zebrafish PXR (Danio rerio, UniProt A5WYG8); assay: cell-based
T1 sequence (A5WYG8 144-430): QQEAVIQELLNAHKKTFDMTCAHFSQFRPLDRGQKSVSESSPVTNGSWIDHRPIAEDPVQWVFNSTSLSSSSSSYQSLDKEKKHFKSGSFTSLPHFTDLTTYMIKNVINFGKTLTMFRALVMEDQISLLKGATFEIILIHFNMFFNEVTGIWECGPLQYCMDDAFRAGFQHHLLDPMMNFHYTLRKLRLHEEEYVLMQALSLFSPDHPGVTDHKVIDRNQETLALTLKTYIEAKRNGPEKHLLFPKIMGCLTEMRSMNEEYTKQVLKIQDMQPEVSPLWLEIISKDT

zebrafish PXR [2] = target: T1, zebrafish PXR
human PXR = target: T2, human PXR (Homo sapiens, UniProt O75469)
T2 sequence (O75469 1-434): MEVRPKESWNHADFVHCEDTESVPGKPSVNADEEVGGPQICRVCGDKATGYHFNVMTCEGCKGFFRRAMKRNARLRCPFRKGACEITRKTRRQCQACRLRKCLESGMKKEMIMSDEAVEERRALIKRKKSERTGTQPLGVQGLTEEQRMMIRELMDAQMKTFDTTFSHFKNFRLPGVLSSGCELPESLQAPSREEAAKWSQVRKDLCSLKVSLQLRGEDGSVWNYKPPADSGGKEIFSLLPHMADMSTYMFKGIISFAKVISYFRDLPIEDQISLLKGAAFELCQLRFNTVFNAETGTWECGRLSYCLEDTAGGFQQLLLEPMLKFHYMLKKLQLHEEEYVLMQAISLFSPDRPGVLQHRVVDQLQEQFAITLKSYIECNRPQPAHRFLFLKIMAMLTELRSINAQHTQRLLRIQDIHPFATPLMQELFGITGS

SMILES	EC50 (zebrafish PXR [1]; zfPXR Activity) [µM]	zfPXR Efficacy (zebrafish PXR [2]; zebrafish)	zfPXR Efficacy (zebrafish PXR [2])	also measured
C[C@]12CCC(=O)C[C@@H]1CC[C@@H]1[C@@H]2CC[C@]2(C)C(=O)CC[C@@H]12 [AN2, 5α-Androstan-3,17-dione]	3.16	0.86		
C[C@]12CC[C@H]3[C@@H](CCC4=CC(=O)CC[C@@]43C)[C@@H]1CC[C@@H]2O [AN8, 4-Androsten-17β-ol-3-one]	2.45	0.12		EC50 (zebrafish PXR [1]; Zebrafish PXR EC50 (concentration class, Figure 2B)): < 10 µM
C[C@]12CC[C@H]3[C@@H](CCC4=CC(=O)CC[C@@]43C)[C@@H]1CC[C@H]2O [AN15, 4-Androsten-17α-ol-3-one]				zfPXR Activity (zebrafish PXR [2]): None
C[C@H](CCC(=O)O)[C@H]1CC[C@H]2[C@@H]3CC[C@@H]4C[C@H](OS(=O)(=O)O)CC[C@]4(C)[C@H]3CC[C@]12C [BI41, 5β-Cholanic acid-3α-sulfate]			0.24	hPXR Efficacy (human PXR): 0.69
CC(=O)O[C@@H]1CC[C@@]2(C)[C@H](CC[C@@H]3[C@@H]2CC[C@]2(C)[C@@H]([C@H](C)CCC(=O)O)CC[C@@H]32)C1 [BI49, 5β-Cholanic acid-3α-acetate]			0.10	
COC(=O)CC[C@@H](C)[C@H]1CC[C@H]2[C@@H]3CC[C@@H]4C[C@H](OC(C)=O)CC[C@]4(C)[C@H]3CC[C@]12C [BI50, 5β-Cholanic acid-3α-acetate methyl ester]				hPXR Efficacy (human PXR): 0.49
CCOP(=S)(OCC)Oc1nc(Cl)c(Cl)cc1Cl [MI10, Chlorpyrifos]	3.63	0.88		
CC(=O)[C@H]1CC[C@H]2[C@@H]3CC[C@H]4C[C@H](O)CC[C@]4(C)[C@H]3CC[C@]12C [PR14, 5α-Pregnan-3α-ol-20-one]	3.98	0.30		
CC(=O)[C@H]1CC[C@H]2[C@@H]3CC[C@@H]4C[C@H](O)CC[C@]4(C)[C@H]3CC[C@]12C [PR25, 5β-Pregnan-3α-ol-20-one]			1.22	

Like-named read-outs stand apart in the source and are kept apart here.
